# Test results as given in the OPERA property sets (Mansouri et al. 2018).
row,Structure (SMILES),logP
1,O=[N+]([O-])c1cc([N+](=O)[O-])c(ONCC(F)(F)F)c([N+](=O)[O-])c1,1.39
2,CN(C)Oc1c([N+](=O)[O-])cc([N+](=O)[O-])cc1[N+](=O)[O-],0.76
3,CN(CC(F)(F)F)Oc1c([N+](=O)[O-])cc([N+](=O)[O-])cc1[N+](=O)[O-],1.37
4,CC(C)NOc1c([N+](=O)[O-])cc([N+](=O)[O-])cc1[N+](=O)[O-],1.37
5,CCCNOc1c([N+](=O)[O-])cc([N+](=O)[O-])cc1[N+](=O)[O-],1.5
6,CCNOc1c([N+](=O)[O-])cc([N+](=O)[O-])cc1[N+](=O)[O-],1.03
